molecular target: Histamine H3 receptor (Homo sapiens, UniProt Q9Y5N1); experiment: Binding affinity for human histamine H3 receptor

Protein sequences, listed by entry. Tags and fused reporters are not part of them. Lines headed by an entry give the natural chain unless they say otherwise; changes in a name come on top.
UniProt Q9Y5N1: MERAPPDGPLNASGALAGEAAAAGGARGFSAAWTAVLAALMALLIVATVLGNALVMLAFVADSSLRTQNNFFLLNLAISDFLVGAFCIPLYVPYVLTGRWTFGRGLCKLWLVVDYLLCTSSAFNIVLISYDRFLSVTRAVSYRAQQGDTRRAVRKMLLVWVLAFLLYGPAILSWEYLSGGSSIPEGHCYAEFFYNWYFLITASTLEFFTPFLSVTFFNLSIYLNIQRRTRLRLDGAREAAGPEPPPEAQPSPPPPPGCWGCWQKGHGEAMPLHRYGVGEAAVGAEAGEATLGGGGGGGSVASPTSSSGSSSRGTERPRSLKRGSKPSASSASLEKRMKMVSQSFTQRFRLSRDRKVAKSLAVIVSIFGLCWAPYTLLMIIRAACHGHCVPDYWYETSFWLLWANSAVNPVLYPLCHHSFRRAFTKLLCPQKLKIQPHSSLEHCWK

Compound	Ki [µM]
Cc1cccn2cc(-c3ccc(OCCCNCc4ccccc4)cc3)nc12	5.4
CCCCN(CCCC)CCCOc1ccc(-c2cn3cc(Br)cc(Br)c3n2)cc1	4.8
CCCCN(CCCC)CCCOc1ccc(-c2cn3cccc(C)c3n2)cc1	2.7
CCCCN(CCCC)CCCOc1ccc(-c2cn3cccc(C)c3n2)c(C)c1	4.2
CCCCN(CCCC)CCCOc1ccc(-c2cn3ccccc3n2)cc1	1.3
CCCCN(CCCC)CCCOc1ccc(-c2cn3cccc(C)c3n2)cc1C	8

From ChEMBL document CHEMBL1134971, “Novel human histamine H(3) receptor antagonists” (Bioorg Med Chem Lett, 2002)
